## Antibody variant affinities, Ab-14 light chain, assay B

Reference: Li et al. 2023, doi:10.1038/s41467-023-39022-2. File: FLAb, binding data.

Binding partner: SARS-CoV-2 spike HR2 peptide, sequence PDVDLGDISGINAS.

Each scFv is VH, a (GGGGS)3 linker, VL, as in the parent Ab-14, and differs from it in the CDRs of the light chain only.
VH: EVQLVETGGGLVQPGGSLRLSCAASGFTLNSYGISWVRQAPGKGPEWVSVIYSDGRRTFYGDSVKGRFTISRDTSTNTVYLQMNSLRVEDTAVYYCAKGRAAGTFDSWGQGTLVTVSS
VL: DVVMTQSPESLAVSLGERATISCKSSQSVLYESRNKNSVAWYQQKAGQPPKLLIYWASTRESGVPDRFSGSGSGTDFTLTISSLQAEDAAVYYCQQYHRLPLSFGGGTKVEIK

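The starting antibody came from a phage panning campaign against this peptide. These sequences belong to a second round, designed from the earlier measurements on random variants of the parent. Their group label is 14L_GP_HC (GP: Gaussian process model; HC: hill climbing; a sequence that several methods proposed may carry one label only). The scFvs were displayed on barcoded MATa yeast, the peptide on MATalpha yeast. Binding brings cells together so that they mate, and sequencing counts the barcode pairs among the diploids. Scores were corrected for input abundance and mapped to Kd with protein pairs of known affinity run in the same pool. Each pool was mated in six replicate cultures.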

The parent's light chain CDRs are KSSQSVLYESRNKNSVA, WASTRES, QQYHRLPLS; each variant's own CDRs replace them letter for letter. The read-out is the apparent dissociation constant on a log10 scale (nM): the lower, the stronger. Where no diploid with the target was found in that replicate, the entry reads "n.d.": below detection, most likely a poor binder, though not proof of it. In the paper, a design with two or fewer of six values counts as a poor binder. Values of this round are not directly comparable with the first-round values of the same sequences. Three control strains display no target. For all light chain designs, 4% of the pairings with them gave a signal, with a median of 2.64 and one signal in twenty below 1.59, so weak values seen in few replicates may be background. For each scFv, signals with the empty controls are counted beside the result, with their mean in brackets.

CDR-L1,CDR-L2,CDR-L3,log10 Kd (nM) by replicate,signal with controls
KSSPVVLYESGNKNSVA,NASTRMS,QQYHRLPLS,0.38 0.51 0.20 0.42 0.18 0.45,0/18
KLRQSTLYESRNPNSVA,QASTRES,QQYHRLPLS,-0.55 -0.45 -0.44 -0.30 -0.69 -0.27,3/18 (1.77)
KQSQEVLFESRNKNSVA,DASTREM,QQYHRLPLS,-0.01 -0.33 -0.32 -0.35 -0.39 -0.11,0/18
KSSWSMLYESRNKNSVA,DASTRES,QQYHRLPLS,0.38 0.10 0.19 0.25 0.53 0.43,0/18
KSSWSVLLESRNKNSVA,DASTRSS,QQYHRLPLS,0.32 0.12 0.16 0.12 0.22 0.19,1/18 (2.16)
KSSQSFLYESRWKNNVA,GASQRES,QQYHRLPLS,0.96 0.84 1.08 0.90 1.07 1.11,4/18 (3.94)
KLRQSIEYESRNKNSVA,NASTRES,QIYHRLPLS,0.93 0.70 0.78 0.70 0.71 0.90,5/18 (2.92)
KSSISYLYESRNFNSVA,EASTREQ,QQYHRLPLS,0.60 0.58 1.06 0.50 0.81 1.02,1/18 (2.82)
KLDQSVLYESRNKNSVA,HASTRED,QQYHRLPLS,0.16 0.26 -0.56 0.17 0.05 0.48,0/18
KSQQSQEYESRNKNSVA,HASTRLS,QQYHRLPLS,0.55 0.35 0.33 0.01 0.30 0.59,0/18
KLWQSTLYESRNKNSVA,NASTRLS,QQYHRLPLS,-0.07 -0.04 0.18 -0.39 0.00 0.10,0/18
KMEQGVLYESRNKGSVA,GASVRES,QQYHRLPLS,0.36 0.25 0.21 0.07 -0.21 0.33,1/18 (2.30)
KSLQSVLYESRNKNSVA,QASTREQ,QQYHFLPLS,n.d. n.d. n.d. n.d. n.d. n.d.,0/18
KISQSVLYESRNKNSVA,DASTRES,QQYQRLPLS,-0.29 -0.48 -0.56 -0.50 -0.46 -0.43,1/18 (2.42)
KCSQSVLGEQRNKNSVA,DASTRES,QQYHRLPLS,-0.17 -0.27 -0.38 -0.51 -0.21 0.04,2/18 (1.76)
KSSISQLYESRNTNSVA,EASTRES,QQYHRLPLS,0.26 0.03 0.26 0.15 0.18 0.38,1/18 (2.78)
KAAQSWLYESRNKNSVA,GASTRES,QQYHRLPLI,1.04 0.78 1.14 0.56 1.04 0.79,1/18 (2.34)
KLSQSTLYDSQNKNSVA,HASTRES,QQYKRLPLS,0.07 0.09 0.00 -0.08 -0.09 0.09,1/18 (2.55)
KMSQSELFESRNKNSVA,DASTRES,QQYHRLPLS,-0.34 -0.24 -0.10 -0.55 -0.39 -0.26,0/18
KSSKSVLFESRNKNSVA,NASTRET,QQYHRLPLS,n.d. n.d. n.d. n.d. n.d. n.d.,0/18
SLMQSVLYESRNKNSVA,HASMRED,QQYHRLPLS,0.32 0.17 0.47 0.17 0.12 0.66,0/18
KVSQSVLYESRMKNSVA,DASTRCS,QQYHRLPLI,-0.24 -0.18 -0.21 -0.18 -0.31 -0.18,0/18
KSLQSQLYESRNKNSVA,HASTRED,QLYHRLPLI,0.94 1.25 0.88 0.35 0.95 1.16,0/18
KMLQSVLYESRNKNSVA,HASTRED,QQYGRLPLS,-0.26 0.07 0.11 -0.18 0.29 0.06,0/18
HSSPSSLYESRNKNSVA,NASTRES,QQYHRLPLS,-0.36 -0.41 -0.47 -0.56 -0.27 -0.28,0/18
KLLQSWLYESRNKNSVA,HASTREQ,QQYHRLPLS,0.11 0.06 0.09 -0.11 -0.21 -0.01,0/18
KSMQSVLYESRDKNSVA,HASTRED,QQYHRLPLS,0.40 0.32 0.12 0.25 0.23 0.37,2/18 (2.33)
KQSQEKPYESRNKNSVA,DASTRES,QQYHRLPLS,-0.40 -0.31 -0.54 -0.83 -0.39 -0.35,1/18 (1.70)
KVSISNLLESRNKNSVA,EASTRES,QQYHRLPLS,0.10 0.00 -0.21 -0.21 -0.38 -0.14,0/18
HSSPSYLYESRNKNSVA,NASTRES,QQYHRLPLQ,0.38 0.13 0.02 -0.05 0.07 0.32,0/18
KLQQQTLYESRNKNSVA,HASTREE,QQYHRLPLS,0.58 0.37 0.25 0.33 0.62 0.19,3/18 (2.48)
KSSFSYLYESRNENSVA,EASTREQ,QQYHRLPLS,0.10 0.25 0.19 -0.02 0.12 0.16,1/18 (2.03)
KVLWSVLYESNNKNSVA,HASTRED,QQYHRLPLS,0.37 0.10 0.04 0.02 -0.01 0.19,2/18 (1.96)
KASQSDLYESRNKNSVA,GASTRES,QQYHRLPLS,-0.46 -0.28 -0.24 -0.34 -0.03 -0.15,1/18 (1.55)
KSLQSVLYESRNGNSVA,HASTRED,QQYHRLPLS,1.30 0.62 0.46 1.13 0.47 0.85,1/18 (2.50)
KSSQSWLYESRVKNSVA,GASTRES,QQYHRLPLS,0.23 0.44 0.26 0.21 0.11 0.48,1/18 (2.76)
SFSQSVLYESRTKNSVA,NGSTRES,QQYHRLPLS,0.11 -0.16 -0.12 0.12 -0.17 0.09,1/18 (3.77)
KSSISSLYESRNENSVA,EASTREQ,QQYHRLPLS,0.48 0.39 0.43 0.19 0.20 0.37,2/18 (3.15)
KSSISMLIESRNKNSVA,EASTRES,QQYHRLPLS,0.92 0.62 1.15 0.62 1.12 1.35,1/18 (2.61)
KVSQSVLYESRVKNSVA,NASTRES,QQMHRLPLS,0.80 0.63 0.43 0.50 0.30 0.58,0/18
KSSGSYLYESMNKNSVA,EASTRES,QQYHRLPLS,0.19 0.38 0.13 -0.17 -0.08 0.38,0/18
KFSQSVDFESRNKNSVA,DASTRES,QQYHRLPLS,-0.27 -0.46 -0.46 -0.55 -0.36 -0.34,0/18
KSSESVLFESRNKNSVA,NASTRES,QQYHRLPLR,1.34 1.45 1.02 1.56 2.19 1.08,0/18
KQSQEKLGESRNKNSVA,DASTRES,QQYHRLPLS,-0.13 -0.13 0.00 -0.28 -0.09 0.06,1/18 (3.08)
KLSQSDLCESRNKNSVA,DASTRES,QQYHRLPLS,0.36 0.45 0.28 0.47 0.26 0.29,1/18 (3.26)
KSPQSVLYESRNKNNVA,HASTRED,QQYARLPLS,-0.24 -0.58 -0.44 -0.93 -0.70 -0.20,0/18
KSSISYLYESQNKNSVA,EASTRES,QQYHRLPLS,0.22 0.07 0.24 0.24 0.09 0.31,1/18 (2.77)
KSSQSVLYESGNKNSVA,NASTRMS,QQYHRLPLS,0.49 0.14 0.22 0.06 0.23 0.48,0/18

For reference, 8 entries of the list once more:

CDR-L1,CDR-L2,CDR-L3,log10 Kd (nM) by replicate,signal with controls
KSQQSQEYESRNKNSVA,HASTRLS,QQYHRLPLS,0.55 0.35 0.33 0.01 0.30 0.59,0/18
KSSKSVLFESRNKNSVA,NASTRET,QQYHRLPLS,n.d. n.d. n.d. n.d. n.d. n.d.,0/18
KQSQEKLGESRNKNSVA,DASTRES,QQYHRLPLS,-0.13 -0.13 0.00 -0.28 -0.09 0.06,1/18 (3.08)
KMSQSELFESRNKNSVA,DASTRES,QQYHRLPLS,-0.34 -0.24 -0.10 -0.55 -0.39 -0.26,0/18
KSMQSVLYESRDKNSVA,HASTRED,QQYHRLPLS,0.40 0.32 0.12 0.25 0.23 0.37,2/18 (2.33)
KSLQSQLYESRNKNSVA,HASTRED,QLYHRLPLI,0.94 1.25 0.88 0.35 0.95 1.16,0/18
KVSISNLLESRNKNSVA,EASTRES,QQYHRLPLS,0.10 0.00 -0.21 -0.21 -0.38 -0.14,0/18
KQSQEKPYESRNKNSVA,DASTRES,QQYHRLPLS,-0.40 -0.31 -0.54 -0.83 -0.39 -0.35,1/18 (1.70)